{
  "sequences": {"note": "Protein sequences, listed by entry. Tags and fused reporters are not part of them.", "UniProt Q07820, whole entry": "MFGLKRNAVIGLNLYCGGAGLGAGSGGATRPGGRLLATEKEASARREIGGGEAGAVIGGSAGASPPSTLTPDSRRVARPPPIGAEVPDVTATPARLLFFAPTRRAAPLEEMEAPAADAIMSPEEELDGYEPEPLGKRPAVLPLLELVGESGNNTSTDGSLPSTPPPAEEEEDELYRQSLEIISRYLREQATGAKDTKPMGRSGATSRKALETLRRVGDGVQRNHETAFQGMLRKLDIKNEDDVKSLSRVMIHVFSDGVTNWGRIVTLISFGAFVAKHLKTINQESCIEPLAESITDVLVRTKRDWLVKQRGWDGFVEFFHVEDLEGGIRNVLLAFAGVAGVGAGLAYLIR"},
  "source": "PubChem BioAssay AID1009",
  "about": "(NMMLSC, 2008)",
  "note": "The list shows a part of the results, in another mix than the full data. Active and inactive are the calls of the source. No stated cut-off is given here; in the data, active means inhibition above about 40%.",
  "data": [
    {"target": "Induced myeloid leukemia cell differentiation protein Mcl-1 (Homo sapiens) (UniProt Q07820)", "test": "Mcl-1/Bim interaction disruptors – biochemical, bead-based flow cytometry, multiplex, primary screen (AID 1009);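 further: 0% = no compound tracer wells and 100% = peptide blocker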", "details": "Bim peptide-Mcl-1 binding, at 10 µM, stronger effect = higher value", "values": [
      {"smiles": "COc1cc(OC)cc(C(=O)NCC2(N3CCOCC3)CCCCC2)c1", "inhibition": "inactive: 2%"},
      {"smiles": "CCC(CO)(C(=O)OC1CN2CCC1CC2)c1ccccc1", "note": "(stereo not given)", "inhibition": "inactive: 0%"},
      {"smiles": "CC(C)(C)OC(=O)N1CCC(Nc2ccccc2)CC1", "inhibition": "inactive: -6%"},
      {"smiles": "CCOc1ncccc1C(=O)NCC1(N2CCOCC2)CCCCC1", "inhibition": "inactive: -8%"},
      {"smiles": "CN(C)c1ccc(C(=O)NCC2(N3CCCCC3)CCCCC2)cc1", "inhibition": "inactive: 0%"},
      {"smiles": "CCN1CCC(Nc2cccc(F)c2)CC1", "inhibition": "inactive: -6%"},
      {"smiles": "Fc1ccccc1NC1CCN(Cc2ccccc2)CC1", "inhibition": "inactive: 0%"},
      {"smiles": "c1ccc(CN2CCC(Nc3ccccc3)CC2)cc1", "inhibition": "inactive: 1%"},
      {"smiles": "N#Cc1ccc(C(=O)NCC2(N3CCCCC3)CCCCC2)cc1", "inhibition": "inactive: 0%"},
      {"smiles": "O=C(OC1CN2CCC1CC2)C1c2ccccc2C=Cc2ccccc21", "note": "(stereo not given)", "inhibition": "inactive: -2%"},
      {"smiles": "N/C(=N\\O)c1c(N)no[n+]1[O-]", "inhibition": "inactive: -2%"},
      {"smiles": "COc1ccc(C(=O)NCC2(N3CCOCC3)CCCCC2)cc1OC", "inhibition": "inactive: 0%"},
      {"smiles": "CC(C)c1ccc(NC2CCN(C(=O)OC(C)(C)C)CC2)cc1", "inhibition": "inactive: 2%"},
      {"smiles": "COc1ccc(CN(CCCl)CCCl)cc1Cl", "inhibition": "inactive: 0%"},
      {"smiles": "CN(C)c1cccc(C(=O)NCC2(N3CCCCC3)CCCCC2)c1", "inhibition": "inactive: 0%"},
      {"smiles": "O=C(NCC1(N2CCOCC2)CCCCC1)c1cc(=O)[nH]c2ccccc12", "inhibition": "inactive: -8%"},
      {"smiles": "CN1CCN(CCOC(=O)C(O)(c2ccccc2)c2ccccc2)CC1", "inhibition": "inactive: -5%"},
      {"smiles": "COc1ccc(NC2CCN(C(=O)OC(C)(C)C)CC2)cc1", "inhibition": "inactive: -1%"},
      {"smiles": "N#CC1(Nc2ccccc2)CCN(CCc2ccccc2)CC1", "inhibition": "inactive: 0%"},
      {"smiles": "O=C(NCC1(N2CCCCC2)CCCCC1)c1cccc([N+](=O)[O-])c1", "inhibition": "inactive: 1%"},
      {"smiles": "COc1ccc(NC2CCN(CCc3ccccc3)CC2)c(OC)c1", "inhibition": "inactive: 0%"},
      {"smiles": "O=C(OC1CN2CCC1CC2)C1c2ccccc2Oc2ccccc21", "note": "(stereo not given)", "inhibition": "inactive: 1%"},
      {"smiles": "CCOC(=O)N1CCC(Nc2ccc(OC)cc2)CC1", "inhibition": "inactive: -2%"},
      {"smiles": "O=C(NCC1(N2CCOCC2)CCCCC1)c1cc2ccccc2o1", "inhibition": "inactive: 7%"},
      {"smiles": "COc1ccc(C(=O)NCC2(N3CCCCC3)CCCCC2)c(OC)c1OC", "inhibition": "inactive: 2%"}
    ]}
  ]
}
